One compound from BindingDB's records for 20149667 can be followed below.

Protein sequences, listed by entry. Tags and fused reporters are not part of them. Residues count along the entry.
UniProt O42275, 24-633 limits assumed: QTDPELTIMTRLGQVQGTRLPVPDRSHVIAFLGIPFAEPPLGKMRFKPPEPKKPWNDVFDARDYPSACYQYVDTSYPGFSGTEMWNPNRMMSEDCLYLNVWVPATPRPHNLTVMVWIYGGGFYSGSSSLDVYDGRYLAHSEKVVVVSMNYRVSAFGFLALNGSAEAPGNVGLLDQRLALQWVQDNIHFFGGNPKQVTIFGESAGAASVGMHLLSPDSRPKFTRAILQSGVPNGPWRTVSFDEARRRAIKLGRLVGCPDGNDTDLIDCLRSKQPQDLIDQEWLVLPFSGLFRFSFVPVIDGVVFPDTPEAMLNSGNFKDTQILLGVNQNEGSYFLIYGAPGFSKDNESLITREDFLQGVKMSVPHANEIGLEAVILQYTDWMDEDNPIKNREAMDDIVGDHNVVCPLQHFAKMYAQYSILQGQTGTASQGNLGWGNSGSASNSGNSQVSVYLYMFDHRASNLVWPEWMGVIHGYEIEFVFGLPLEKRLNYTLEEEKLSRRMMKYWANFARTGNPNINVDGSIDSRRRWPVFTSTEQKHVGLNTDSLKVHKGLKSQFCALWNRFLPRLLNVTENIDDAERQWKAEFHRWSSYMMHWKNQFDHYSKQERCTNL

The target of this assay is Acetylcholinesterase (Electrophorus electricus, UniProt O42275). Description: Inhibition of electric eel AChE by modified Ellman's method.

For `O=NCC1CCN(CCCc2ccccc2)CC1`, half-maximal inhibition (IC50) required 278 µM.
